The list shows a part of the results, in another mix than the full data. Inconclusive results are not listed. Activity calls are given as the source filed them. Calls follow the shape of the dose curve; as a rule, active = well fitted inhibition curve with a large enough effect; inconclusive = small, poorly fitted or top-dose-only effect; inactive = no such curve, though single readings can be large or run the other way.
% is scaled to controls: 0 for no effect and ±100 for the full control effect.

Sequences of proteins named here, by UniProt entry; tags and fusion partners are left off. Residues count along the entry.
UniProt P02791, 2-175 limits assumed: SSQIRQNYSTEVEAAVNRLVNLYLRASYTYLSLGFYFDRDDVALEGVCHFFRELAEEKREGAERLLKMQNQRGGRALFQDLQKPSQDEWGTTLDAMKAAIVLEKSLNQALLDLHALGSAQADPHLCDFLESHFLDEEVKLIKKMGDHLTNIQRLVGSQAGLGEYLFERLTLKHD

This assay has as its target Ferritin light chain (Equus caballus) (UniProt P02791). Nature of the assay: qHTS Assay for Identification of Novel General Anesthetics. Also: nearly all actives have a fitted effect of over 20% in size. As to conditions: apoferritin/1-aminoanthracene competitive binding, fluorescence; at 77.5 µM (top of the series).
Regarding `CN(CCCl)CCCl`, the activity change, negative = displacement was inactive: -14.1%.

The values above are taken from PubChem BioAssay AID485281 (National Center for Advancing Translational Sciences (NCATS), 2010).
